# In ChEMBL document CHEMBL2385035, “Discovery of a highly potent, nonabsorbable apical sodium-dependent bile acid transporter inhibitor (GSK2330672) for treatment of type 2 diabetes” (J Med Chem, 2013):
# Target: T1, Ileal sodium/bile acid cotransporter (Homo sapiens, UniProt Q12908)
# T1 sequence (Q12908 whole entry): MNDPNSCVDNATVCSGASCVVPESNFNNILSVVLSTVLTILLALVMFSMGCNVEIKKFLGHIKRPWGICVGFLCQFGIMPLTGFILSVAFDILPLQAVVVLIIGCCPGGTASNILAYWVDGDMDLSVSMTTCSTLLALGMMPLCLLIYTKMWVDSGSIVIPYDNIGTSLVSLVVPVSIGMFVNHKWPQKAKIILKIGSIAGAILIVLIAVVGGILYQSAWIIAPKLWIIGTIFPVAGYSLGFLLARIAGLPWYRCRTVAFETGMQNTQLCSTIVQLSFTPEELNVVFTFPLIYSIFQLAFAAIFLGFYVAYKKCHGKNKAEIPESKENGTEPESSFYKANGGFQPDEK
# Experiment: Inhibition of human ASBT expressed in HEK293 cells assessed as inhibition of [3H]-taurocholate uptake after 90 mins by scintillation counting analysis
# Format: cell-based
smiles,measurement,value
CCCC[C@]1(CC)CS(=O)(=O)c2cc(C(=O)NC(CC(=O)O)CC(=O)O)c(OC)cc2[C@@H](c2ccccc2)N1,IC50,97 nM
